Results from patent US10202350B2, “MCT4 inhibitors for treating disease” (Vettore, LLC, priority 2015, dated 2019).

Protein sequences, listed by entry. Tags and fused reporters are not part of them. Lines headed by an entry give the natural chain unless they say otherwise; changes in a name come on top.
UniProt O15427: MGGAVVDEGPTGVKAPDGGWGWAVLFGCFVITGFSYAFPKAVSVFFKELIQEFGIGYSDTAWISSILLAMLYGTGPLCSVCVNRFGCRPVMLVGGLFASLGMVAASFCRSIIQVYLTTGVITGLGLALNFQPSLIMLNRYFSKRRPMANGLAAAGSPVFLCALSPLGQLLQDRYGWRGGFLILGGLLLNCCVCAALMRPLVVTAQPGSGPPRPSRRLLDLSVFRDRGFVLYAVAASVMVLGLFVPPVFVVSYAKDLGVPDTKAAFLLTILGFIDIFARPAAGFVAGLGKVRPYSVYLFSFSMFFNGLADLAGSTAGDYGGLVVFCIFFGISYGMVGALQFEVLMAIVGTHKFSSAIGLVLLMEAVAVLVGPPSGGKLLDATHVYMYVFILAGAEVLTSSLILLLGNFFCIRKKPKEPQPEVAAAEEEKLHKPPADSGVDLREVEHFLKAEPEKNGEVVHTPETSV

Target: MCT4 (Homo sapiens (Human), UniProt O15427)
Assay: MCT4-mediated lactate transport in MDA-MB-231 breast cancer cells
Format: cell-based
Conditions: MDA-MB-231 cells, native MCT4; 50 mM L-lactate
Protocol: 10 μL of a 30 mM DMSO stock of BCECF-AM ester (Life Technologies) is added and the cells are incubated at 37° C. for 5 min. The cells are pelleted (300 g, 5 min), washed once with 1 mL Tyrode's Solution, pH 7.4, re-pelleted (300 g, 5 min), and resuspended in 1 mL Tyrode's Solution, pH 7.4.
2.5 μL BCECF-loaded cells, along with either 10 μL DMSO or 100×compound in DMSO, are added to 937.5 μL of Tyrode's Solution in a quartz 1.0 mL cuvette (PerkinElmer, B0631116). […] After establishing baseline BCECF fluorescence (around 10-20 s), 50 μL of 1 M sodium L-lactate (Sigma-Aldrich) is added to the cuvette (final concentration: 50 mM) and rapidly mixed. The time-dependent decrease in BCECF fluorescence (490/440 ratio) may be fit to an exponential decay curve (Prism GraphPad) to determine the rate of lactate transport.
Preparation of BCECF-loaded cells and lactate transport activity may be determined as described for Assay 1.

IC50: 340 nM
SMILES: CC(C)(OCc1cc(Cc2ccccc2)n(Cc2ccccc2Cl)n1)C(=O)O [Example 77, 2-([5-Benzyl-1-[(2-chlorophenyl)methyl]-1H-pyrazol-3-yl]methoxy)-2-methylpropanoic Acid]
